GI50 and TGI data for one compound are collected here from PubChem BioAssay (NCI).

The subject of the assay is MDA-MB-468 breast. As to the kind of experiment: NCI anticancer screen, dose series, 48 h.

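Values below derive from 48-hour exposures of cells grown in 96-well plates, with endpoints linearly interpolated between the two concentrations bracketing the appropriate inhibition level. GI50 marks 50% less growth. Definition used: TGI = concentration required for complete inhibition of growth.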

Consider `O=[As]c1ccc(S(=O)(=O)Nc2ccccc2)cc1` (configuration not stated), for which the GI50 was 1370 nM and the TGI was found to be 3130 nM.
